Assay results: patent US20130218474A1, “Benchmarks for Normal Cell Identification” (priority 2012, published 2013)

Tested on: FLT3 induced pAKT signal
Test: Block of FLT3 induced pAKT signal
Type: cell-based
Details: 100 nM

CC(C)(C)c1cc(NC(=O)Nc2ccc(-c3cn4c(n3)sc3cc(OCCN5CCOCC5)ccc34)cc2)no1
block of the FLT3 induced pAKT signal: Administering a 100 nM concentration of AC220 can block ~80-90%
